Measured values from patent US7618786B2, “Method for identifying modulators of human orexin-2 receptor” (Janssen Pharmaceutica N.V., priority 2002, dated 2009).

Protein sequences, listed by entry. Tags and fused reporters are not part of them.
UniProt O43614, whole entry: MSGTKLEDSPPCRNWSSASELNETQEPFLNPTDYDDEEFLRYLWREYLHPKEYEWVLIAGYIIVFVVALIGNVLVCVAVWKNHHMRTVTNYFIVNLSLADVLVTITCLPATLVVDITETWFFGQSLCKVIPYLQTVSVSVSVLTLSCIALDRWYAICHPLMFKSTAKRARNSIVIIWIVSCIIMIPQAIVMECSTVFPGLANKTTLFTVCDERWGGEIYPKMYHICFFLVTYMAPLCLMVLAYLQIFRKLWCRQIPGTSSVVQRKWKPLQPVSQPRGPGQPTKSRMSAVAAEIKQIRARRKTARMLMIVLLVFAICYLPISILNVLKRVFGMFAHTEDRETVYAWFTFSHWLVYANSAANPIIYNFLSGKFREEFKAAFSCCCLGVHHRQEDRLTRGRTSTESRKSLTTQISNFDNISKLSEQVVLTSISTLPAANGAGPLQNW

Target: T1, human orexin-2 receptor (Homo sapiens, UniProt O43614)
T1 construct: non-recombinant cell lines that produce the orexin-2 receptor may be utilized; host or cells: PFSK-1 cells (human primitive neuroectodermal tumor line)
Assay: Fluorescence (Fluo-3, FLIPR) assay of intracellular calcium ion in PFSK-1 cells
Assay type: cell-based
Details: agonist EC50 for intracellular Ca++ increase in PFSK-1 cells, determined on the same plate as the inhibitor of that row; read-out: Orexin B EC50
Description: Antagonism is analyzed by calculating KB and pKB values for compounds found to inhibit increases in intracellular Ca^++ concentrations in the cells. This is accomplished by determining the EC50 of an orexin agonist and comparing the IC50 values determined from dilutions of antagonist compound(s) on a single multi-well plate of PFSK-1 cells loaded with Fluo-3 AM or a similar dye. In this case, all of the wells, except those used to determine the agonist's EC50, are given the same concentration of the orexin agonist.
The KB is then determined after Cheng and Prusoff (1973), Biochem. Pharmacol. 22: 3099-3108, using the formula below: KB=IC50/(1+({agonist}/EC50)) […]
Following the incubation step described in Example 2, changes in intracellular calcium concentrations were measured using the FLIPR instrument (Molecular Probes, Eugene, Oreg.). […] Data were analyzed using the maximum signal minus the minimum signal for each well, in arbitrary fluorescence units. […]
Antagonism was analyzed by calculating KB and pKB values for compounds found to inhibit increases in intracellular Ca^++ concentrations in the cells. This was accomplished by determining the EC50 of an orexin agonist and comparing the IC50 values determined from dilutions of antagonist compound(s) on a single multi-well plate of PFSK-1 cells loaded with Fluo-3 AM.
The KB was then determined using the formula of Cheng and Prusoff. […]

EC50: 13 nM
Substance: Orexin B: orexin-2 receptor ligand; peptide agonist, cleavage product of pre-pro orexin
